{
  "source": "patent US20170189409A1",
  "about": "“MEDICAL USE” (Almirall, S.A., priority 2014, published 2017)",
  "tested_on": "autoantibody-mediated cutaneous lesions",
  "experiment": "Immunization-induced mouse model of epidermolysis bullosa acquista (EBA)",
  "assay_type": "in vivo, B6.SJL-H2s mice",
  "conditions": "6 week treatment; LAS191954 orally 3 mg/kg/day, methylprednisolone orally 20 mg/kg/day; versus vehicle",
  "description": "Induction of experimental EBA was performed as described in […] et al., J Immunol. 2013; 191:2978-2988. Briefly, 6-10 week B6.SJL-[…] mice were immunized with an emulsion of a recombinant protein encompassing the vWFA2 binding domain of mouse type VII collagen (COL7) in adjuvant (Titermax). After immunization, mice were weekly evaluated for the presence and extend of clinical disease, measured as percentage of body surface affected by skin lesions (erythema, blisters, erosions and crusts). […] Treatments were carried out over a 6-week period, and mice were evaluated for the extend of clinical disease (primary endpoint) weekly. […] For better comparability between experiments, the affected body surface area at weeks 1-6 was related to that at inclusion (set at 1). Body weight was monitored weekly during treatment.",
  "data": [
    {"compound": "C[C@H](Nc1ncnc(N)c1C#N)c1nn2ccc(C#N)c2c(=O)n1-c1ccccc1", "note": "[LAS191954, (S)-2-(1-(6-amino-5-cyanopyrimidin-4-ylamino)ethyl)-4-oxo-3-phenyl-3,4-dihydropyrrolo[1,2-f][1,2,4]triazine-5-carbonitrile]", "values": [
      {"measurement": "clinical severity (body surface area affected by skin lesions relative to score at inclusion)", "value": "progressively and significantly (p<0.001 for weeks 4, 5 and 6) reduced the clinical severity"}
    ]}
  ]
}
